Only a part is listed here, and it is no random draw. Active and inactive are the calls of the source. Cut-off read from the data, not from the text of the source: active = activation above about 22%; inactive = the rest.
Each compound was assayed against Peroxisome proliferator-activated receptor gamma (Homo sapiens) (UniProt P37231) (assay: agonists of PPARg-SRC-2 recruitment, primary screen, biochemical, HTS (AID 1032;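 note: 0% = vehicle and 100% = reference agonist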)). Settings: PPARgamma LBD-SRC-2 recruitment, at 8 µM, stronger effect = higher value.

Amino acid sequences for entries named in this document (tags omitted). Residues count along the entry.
UniProt P37231, 232-505 limits assumed: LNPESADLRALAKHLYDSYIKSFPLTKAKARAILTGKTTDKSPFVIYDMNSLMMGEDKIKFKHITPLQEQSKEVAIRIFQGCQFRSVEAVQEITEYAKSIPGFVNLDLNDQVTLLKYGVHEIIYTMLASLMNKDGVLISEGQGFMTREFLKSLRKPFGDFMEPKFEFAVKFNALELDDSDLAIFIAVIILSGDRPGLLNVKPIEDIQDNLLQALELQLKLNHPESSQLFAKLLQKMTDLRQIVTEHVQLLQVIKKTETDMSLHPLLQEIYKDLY
UniProt Q15596, whole entry partner: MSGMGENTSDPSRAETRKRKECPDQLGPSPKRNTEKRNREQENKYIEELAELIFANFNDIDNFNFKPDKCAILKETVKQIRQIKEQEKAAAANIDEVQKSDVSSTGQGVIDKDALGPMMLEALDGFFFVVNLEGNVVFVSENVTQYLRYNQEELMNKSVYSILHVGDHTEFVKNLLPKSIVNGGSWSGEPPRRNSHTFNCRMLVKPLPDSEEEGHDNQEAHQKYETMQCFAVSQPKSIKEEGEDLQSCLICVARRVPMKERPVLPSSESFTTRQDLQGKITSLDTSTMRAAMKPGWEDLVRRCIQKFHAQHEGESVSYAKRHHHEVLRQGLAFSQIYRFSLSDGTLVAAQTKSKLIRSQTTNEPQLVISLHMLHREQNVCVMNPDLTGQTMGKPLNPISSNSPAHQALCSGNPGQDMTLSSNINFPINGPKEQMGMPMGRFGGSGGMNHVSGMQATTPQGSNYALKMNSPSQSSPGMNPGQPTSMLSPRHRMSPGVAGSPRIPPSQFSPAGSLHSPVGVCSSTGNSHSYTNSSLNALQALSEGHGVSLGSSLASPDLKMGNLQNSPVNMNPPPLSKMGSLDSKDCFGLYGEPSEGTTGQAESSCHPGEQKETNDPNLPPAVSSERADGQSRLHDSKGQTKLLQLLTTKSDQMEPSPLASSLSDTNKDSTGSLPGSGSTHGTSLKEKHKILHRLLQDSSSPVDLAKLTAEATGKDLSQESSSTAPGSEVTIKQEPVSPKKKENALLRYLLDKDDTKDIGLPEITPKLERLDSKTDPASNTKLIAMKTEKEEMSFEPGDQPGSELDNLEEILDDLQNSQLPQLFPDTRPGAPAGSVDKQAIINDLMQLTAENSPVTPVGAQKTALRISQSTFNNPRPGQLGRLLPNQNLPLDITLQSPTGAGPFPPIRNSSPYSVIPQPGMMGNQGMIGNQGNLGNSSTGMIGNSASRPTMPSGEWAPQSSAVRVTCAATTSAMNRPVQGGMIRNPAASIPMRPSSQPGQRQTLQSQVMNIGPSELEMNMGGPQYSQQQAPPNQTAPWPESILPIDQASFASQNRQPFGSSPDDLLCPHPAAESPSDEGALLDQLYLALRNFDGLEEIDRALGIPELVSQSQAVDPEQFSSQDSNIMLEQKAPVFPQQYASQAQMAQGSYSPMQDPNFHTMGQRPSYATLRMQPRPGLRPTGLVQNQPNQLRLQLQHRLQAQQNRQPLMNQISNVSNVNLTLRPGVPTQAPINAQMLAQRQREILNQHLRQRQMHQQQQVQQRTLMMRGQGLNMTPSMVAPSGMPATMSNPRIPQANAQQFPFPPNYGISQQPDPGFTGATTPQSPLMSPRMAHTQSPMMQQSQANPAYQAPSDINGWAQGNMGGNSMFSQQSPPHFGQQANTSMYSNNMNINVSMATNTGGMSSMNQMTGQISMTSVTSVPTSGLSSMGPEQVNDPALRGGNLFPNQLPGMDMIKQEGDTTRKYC

Q: For COc1ccccc1OP(C)(=O)Nc1cc(Cl)ccc1C (stereo unspecified), which activation is on record?
A: Its activation is inactive: 3.76%.
